Results on 1 compound are retold here after ChEMBL document CHEMBL4007415, “Thieno[3,2-b]pyrrole-5-carboxamides as New Reversible Inhibitors of Histone Lysine Demethylase KDM1A/LSD1. Part 1: High-Throughput Screening and Preliminary Exploration” (J Med Chem, 2017).

Sequences of proteins named here, by UniProt entry; tags and fusion partners are left off.
UniProt P27338, whole entry: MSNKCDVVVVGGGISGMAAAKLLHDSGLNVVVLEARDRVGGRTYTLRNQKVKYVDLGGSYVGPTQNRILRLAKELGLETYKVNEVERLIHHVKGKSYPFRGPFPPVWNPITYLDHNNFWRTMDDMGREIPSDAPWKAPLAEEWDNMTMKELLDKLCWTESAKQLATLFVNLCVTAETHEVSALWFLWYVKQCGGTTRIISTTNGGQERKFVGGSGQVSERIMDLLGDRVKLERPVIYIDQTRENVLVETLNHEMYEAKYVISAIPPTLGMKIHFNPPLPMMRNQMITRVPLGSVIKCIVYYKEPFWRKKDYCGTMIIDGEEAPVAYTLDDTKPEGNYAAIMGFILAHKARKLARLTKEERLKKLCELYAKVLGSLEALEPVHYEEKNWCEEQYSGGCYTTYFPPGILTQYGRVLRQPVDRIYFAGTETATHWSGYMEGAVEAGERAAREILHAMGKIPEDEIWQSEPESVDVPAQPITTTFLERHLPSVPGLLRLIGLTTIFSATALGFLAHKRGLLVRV

In the test the target is Amine oxidase [flavin-containing] B (Homo sapiens, UniProt P27338).

One may read the IC50 as the concentration that gives 50% inhibition. A low value points to higher potency.

Regarding `NC1CCC(N[C@@H]2C[C@H]2c2ccccc2)CC1` (stereo partly specified), the IC50 is more than 100 µM.
